# Reference: patent US5383848A, “Iontophoretic administration of drugs” (Gensia, Inc., priority 1991, dated 1995)
# Tested on: elevated heart rate
# Assay: Additional in vivo dog experiments: dermal clearance enhancer pretreatment then arbutamine TDI (Example C)
# Set-up: species or system labrador dogs
# Conditions: heart rate decline, Table VII, single dog run; listed as Control, hydrochloride
# Procedure: Additional experiments were performed to study the effect of certain compositions on the offset time and dermal clearance in dogs.
# In these experiments, the formulation to be tested was applied either topically or by transdermal iontophoresis (TDI) as described below.
# Six labrador dogs (20 to 30 kg) were trained to lie quietly on a table. Before each experiment, three ECG electrodes (one lead) were applied on shaved areas of the back (near the front legs) to obtain the heart rate. The outer hind leg area (either right or left) was shaved prior to each experiment, with care taken not to cut or visibly damage the skin. […]
# Each vasodilator that was delivered by TDI used a 1.8 cm^2 electrode (Graphic Controls, Buffalo, N.Y.) containing the vasodilator in a gel at the concentrations listed in experimental methods section. […] During this time the heart rate was continuously recorded (at 5 second intervals) with the ESA Research System. […]
# Each topically applied vasodilator was applied to the skin in a volume of approximately 0.25 ml. The agent was allowed to absorb into the skin, during which time the heart rate was continuously recorded for 10 minutes using the ESA Research System.
# To test if heat alone would produce sufficient vasodilation, a 60° C. hot pack was applied to the skin 10 minutes prior to drug delivery, during which time the heat rate was continuously recorded by the ESA System. […]
smiles,measurement,value
"Cl.Oc1ccc(CCCCNCC(O)c2ccc(O)c(O)c2)cc1 (stereo not shown) [Arbutamine, 1-(3,4-dihydroxy-phenyl)-2-(4-(4-hydroxyphenyl)butylamino)ethanol hydrochloride]",HALF-LIFE,19.89 min and 19.23 min

# Values joined by “and” are separate entries in the source; they are usually repeats but may differ in a detail not shown here. Equal entries are not always repeated.
